From US20180209979A1, “METHOD FOR INDIVIDUALIZED CANCER THERAPY” (INSERM (INSTITUT NATIONAL DE LA SANTE ET DE LA RECHERCHE), priority 2015, published 2018)

Tests used:
[1] = tested on: CAL33 cells; test: Clonogenicity assay (clonal growth) of shC, sh1 and sh2 CAL33 cells; type: cell-based, human; conditions: cetuximab 6 nmol/L, FIG. 7
Procedure: (§1) Statistical analysis was carried out using a t test. […] The concentration of erlotinib/Tarceva which reduces tumor cell growth, was assessed by using the 3-[4,5-dimethylthiazol-2yl]-diphenyltetrazolium bromide (MTT) colorimetric assay (Sigma, Lyon, France) according to the manufacturer's instructions.

[2] = tested on: CAL33 cells; conditions: Rebucci M et al. 2011, read-out: IC50 of cetuximab; cited from earlier work
[3] = tested on: CAL27 cells; test: Clonal growth of shC and sh2 CAL27 cells; type: cell-based, human; conditions: sh2 CAL 27 cells; FIG. 9
Procedure: as §1

In the case of cetuximab, the “inhibition of clonal growth” value ([1]; sh1 CAL33 cells (TRF2 knock-down)) is listed as 60%, the “inhibition of clonal growth” value ([1]; sh2 CAL33 cells (TRF2 knock-down)) is listed as 60% and the IC50 [2] is listed as 30 nM. For the same substance, the “effect of TRF2 knock-down on efficacy of the drug (clonal growth)” value [3] was “increased the efficacy”.
